## Antibody variant affinities, Ab-14 light chain, assay 1

All variants were tested on one target, the spike HR2 peptide PDVDLGDISGINAS (SARS-CoV-2).

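In library AAYL50, one, two or three CDR residues were substituted; doubles and triples were drawn at random. The assay is AlphaSeq: two haploid yeast populations carry antibody and antigen on their surface. Binding brings cells together so that they mate, and sequencing counts the barcode pairs among the diploids. Read counts were normalised to the haploid input and turned into Kd by a linear fit to BCL2-family pairs of known affinity, for each replicate. The assay was run in three technical replicates.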

Parent: Ab-14, a human scFv built as VH, the linker GGGGSGGGGSGGGGS, VL. Only the CDRs of the light chain vary.
VH: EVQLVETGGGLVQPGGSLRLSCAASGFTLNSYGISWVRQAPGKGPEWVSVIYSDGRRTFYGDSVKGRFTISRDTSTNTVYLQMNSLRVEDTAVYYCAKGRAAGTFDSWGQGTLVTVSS
VL: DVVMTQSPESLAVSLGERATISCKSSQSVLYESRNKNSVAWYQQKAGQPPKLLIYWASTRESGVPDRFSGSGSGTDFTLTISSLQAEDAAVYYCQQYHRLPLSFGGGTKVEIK

Each variant is given by its three light chain CDRs, as the data file delimits them; those of the parent are KSSQSVLYESRNKNSVA, WASTRES, QQYHRLPLS. Numbers give log10(Kd / nM), so 0 is 1 nM and 3 is 1 µM. Smaller is tighter. An entry "ND" has no value in the source: the pair was not observed among the diploids in that replicate. This suggests poor binding but is not conclusive.

| CDR-L1 | CDR-L2 | CDR-L3 | log10 Kd, replicates | control signals |
|---|---|---|---|---|
| KSSQSVLYESRNKTSVA | WASTRFS | QQYHRQPLS | ND / ND / ND | 1 of 9 (2.21) |
| VSFQSVLYELRNKNSVA | WASTRES | QQYHRLPLS | 6.33 / ND / 4.80 | 2 of 9 (4.83) |
| KSSQSVLYESRNKNSVA | WASTSES | CQYHNLPLS | 6.02 / 4.08 / 4.21 | 2 of 9 (5.44) |
| KSSQSVLYESFNKNSVA | WASIRES | QQYHYLPLS | 0.83 / 0.90 / 0.96 | 1 of 9 (2.68) |
| KSSQSVLYESRRKFSVA | WAATRES | QQYHRLPLS | 3.80 / ND / 3.55 | 1 of 9 (4.02) |
| KSSQSVVYESRNKNAVA | WASTRES | QQYHRLPCS | ND / ND / ND | 0 of 9 |
| KHSQSTLYESRNKNSVA | WASTRES | QQYHRLPLG | ND / ND / ND | 1 of 9 (4.36) |
| KSSQSVLYESRNKWSVA | WASTRES | EQYHRLPES | 1.26 / 1.52 / 1.57 | 1 of 9 (3.85) |
| KSMYSVLYESRNKNSVA | WASTRES | QMYHRLPLS | ND / ND / ND | 1 of 9 (3.04) |
| KFSQSVLYESRCKNSVA | WASTRES | QQYHRLPDS | ND / ND / ND | 0 of 9 |
| PSSQSVLYESRNKNSVA | WAETRES | FQYHRLPLS | 3.15 / ND / ND | 0 of 9 |
| KSSQSVLYESRNKNSVG | IASWRES | QQYHRLPLS | ND / ND / 5.92 | 1 of 9 (3.93) |
| KSSSSVLYESRNKNSVA | WASHRES | QQYHRLPLS | 1.38 / 1.08 / 1.46 | 2 of 9 (4.18) |
| KSSWSVCYESRNKNSVA | WASTRES | QQYHRLPLS | ND / ND / 3.62 | 1 of 9 (3.18) |
| KSSQSVLYESRVYNSVA | WASTRES | QQYHRLPLS | 1.52 / 1.54 / 1.66 | 1 of 9 (4.71) |
| KSSQSDLYESRNKNSVF | WASTRES | QQYHRLPLL | ND / ND / 6.21 | 5 of 9 (4.42) |
| KSSQSLQYESRNKNSVA | WASTRES | QQYTRLPLS | 0.46 / 0.62 / 0.52 | 0 of 9 |
| KSSQSVLYESRNKNSVA | WASTRES | FTYHRLPLS | 3.94 / 4.39 / 4.73 | 3 of 9 (4.58) |
| KSSQSVLYESTNKNSVA | WASTRET | QQYHRLPSS | ND / ND / ND | 2 of 9 (4.07) |
| NSSQSVLYESRNKNSEA | GASTRES | QQYHRLPLS | ND / ND / ND | 1 of 9 (2.72) |
| QSSQSHLYESRNKNSGA | WASTRES | QQYHRLPLS | 3.26 / 3.18 / 4.24 | 4 of 9 (3.94) |
| KSSQSVLYPSRNKPSVA | WASWRES | QQYHRLPLS | 2.77 / 2.39 / 4.16 | 1 of 9 (3.97) |
| KSSQSVLYESRNKNSVA | IARTRES | QQYHRVPLS | ND / ND / ND | 1 of 9 (3.10) |
| KSSQSVLYESRNKKSVA | WASTRES | QQYHCLRLS | 2.20 / 2.92 / ND | 1 of 9 (2.44) |
| KSSQSVLYESRNKNSAA | WASRRES | QQYHRLPIS | 4.53 / 3.57 / 5.29 | 6 of 9 (4.50) |
| KSSQSVLNESRNKNDVA | WASTRES | QQSHRLPLS | 0.77 / 1.05 / 1.39 | 1 of 9 (3.91) |
| KSSQSVLYESRNKNSVA | WASTNES | QQYHCLPRS | ND / 2.99 / 4.77 | 4 of 9 (4.19) |
| KSSQSVLYESRSKNSVA | WASIRES | HQYHRLPLS | 0.79 / 0.98 / 0.88 | 3 of 9 (4.10) |
| KSSQSVLYESRKKNMVA | WASTRES | QNYHRLPLS | 3.14 / ND / ND | 0 of 9 |
| KSSQSQLYESRNKNSVA | WAATRES | QQFHRLPLS | 1.49 / 1.37 / 1.41 | 0 of 9 |
| KSSHSVLYESRNKNSVA | WASTRES | QQYHWLPES | ND / 3.43 / ND | 2 of 9 (3.47) |
| KSSQSVLYESRNKTSVA | WASTRES | QTYHRLLLS | ND / 3.71 / ND | 4 of 9 (5.01) |
| HKSQSVLYESRNKNSVA | WASTRPS | QQYHRLPLS | 2.13 / 2.30 / 2.48 | 4 of 9 (4.78) |
| KSSQSVPYESRNKASVA | WASTRES | QNYHRLPLS | ND / ND / ND | 1 of 9 (5.06) |
| KSSQSVLYESRNKNMVA | WASTREQ | QQYHILPLS | ND / ND / ND | 0 of 9 |
| KSSQSVLYESRNKNSVA | WASTRES | WQYHRLLLL | ND / ND / ND | 1 of 9 (3.73) |
| YSSQFVLYESRNKNSVA | WASTRES | TQYHRLPLS | ND / ND / 4.45 | 0 of 9 |
| KSSQSVLYESRMKNSVA | WASTRES | QQYHRLPLS | 1.96 / 1.80 / 1.86 | 1 of 9 (5.31) |
| KSSQSVLYESRNKNSVA | WASTREW | QQSHGLPLS | 5.20 / ND / 4.87 | 7 of 9 (4.99) |
| KSSQSVLGHSRNKNSVA | WASTRES | QQYHRLNLS | 4.57 / ND / 4.24 | 3 of 9 (4.32) |
| KSSQSVLYESRNKNSVA | WASTRES | RQDPRLPLS | 1.19 / 1.25 / 1.39 | 4 of 9 (4.47) |
| KSSQSVLIESGNKNSVA | WASTRES | QQYHRLRLS | 1.19 / 1.13 / 0.97 | 2 of 9 (3.58) |
| KSMYSVLYYSRNKNSVA | WASTRES | QQYHRLPLS | 3.10 / 2.94 / ND | 2 of 9 (3.80) |
| KSSQSVLYESRNFRSVA | WASTKES | QQYHRLPLS | 1.06 / 1.15 / 1.46 | 0 of 9 |
| KSSQSVLYESRNKNSVA | WASTRES | FQYHTLPLS | 1.04 / 1.35 / 1.12 | 2 of 9 (4.43) |

Repeated from above, the 6 best binders with a signal in all replicates:

| CDR-L1 | CDR-L2 | CDR-L3 | log10 Kd, replicates | control signals |
|---|---|---|---|---|
| KSSQSLQYESRNKNSVA | WASTRES | QQYTRLPLS | 0.46 / 0.62 / 0.52 | 0 of 9 |
| KSSQSVLYESRSKNSVA | WASIRES | HQYHRLPLS | 0.79 / 0.98 / 0.88 | 3 of 9 (4.10) |
| KSSQSVLYESFNKNSVA | WASIRES | QQYHYLPLS | 0.83 / 0.90 / 0.96 | 1 of 9 (2.68) |
| KSSQSVLNESRNKNDVA | WASTRES | QQSHRLPLS | 0.77 / 1.05 / 1.39 | 1 of 9 (3.91) |
| KSSQSVLIESGNKNSVA | WASTRES | QQYHRLRLS | 1.19 / 1.13 / 0.97 | 2 of 9 (3.58) |
| KSSQSVLYESRNKNSVA | WASTRES | FQYHTLPLS | 1.04 / 1.35 / 1.12 | 2 of 9 (4.43) |

As a blank, each scFv also met three strains without target: over library AAYL50, 18% of these pairings were detected, typically at 4.19 and seldom below 2.99. For each scFv, signals with the empty controls are counted beside the result, with their mean in brackets. In this assay the parent's reference entry averaged 0.65; its copy inside this library read 1.68.

From the AlphaSeq antibody data of Engelhart et al. 2022 (doi:10.1038/s41597-022-01779-4), copy in the FLAb collection.